Measured values: patent US20260384450A1, “MACROCYCLIC AMINOPYRIDINE COMPOUNDS AS EGFR INHIBITORS” (published 2026)
Like-named read-outs stand apart in the source and are kept apart here.

Chains of the proteins cited; added tags and fusions are not shown. Lines headed by an entry give the natural chain unless they say otherwise; changes in a name come on top. A line that says so, or that is headed by a name, gives the form on record, which may keep a tag or linker. Residues count along the entry.
UniProt P00533, 25-1210 limits assumed: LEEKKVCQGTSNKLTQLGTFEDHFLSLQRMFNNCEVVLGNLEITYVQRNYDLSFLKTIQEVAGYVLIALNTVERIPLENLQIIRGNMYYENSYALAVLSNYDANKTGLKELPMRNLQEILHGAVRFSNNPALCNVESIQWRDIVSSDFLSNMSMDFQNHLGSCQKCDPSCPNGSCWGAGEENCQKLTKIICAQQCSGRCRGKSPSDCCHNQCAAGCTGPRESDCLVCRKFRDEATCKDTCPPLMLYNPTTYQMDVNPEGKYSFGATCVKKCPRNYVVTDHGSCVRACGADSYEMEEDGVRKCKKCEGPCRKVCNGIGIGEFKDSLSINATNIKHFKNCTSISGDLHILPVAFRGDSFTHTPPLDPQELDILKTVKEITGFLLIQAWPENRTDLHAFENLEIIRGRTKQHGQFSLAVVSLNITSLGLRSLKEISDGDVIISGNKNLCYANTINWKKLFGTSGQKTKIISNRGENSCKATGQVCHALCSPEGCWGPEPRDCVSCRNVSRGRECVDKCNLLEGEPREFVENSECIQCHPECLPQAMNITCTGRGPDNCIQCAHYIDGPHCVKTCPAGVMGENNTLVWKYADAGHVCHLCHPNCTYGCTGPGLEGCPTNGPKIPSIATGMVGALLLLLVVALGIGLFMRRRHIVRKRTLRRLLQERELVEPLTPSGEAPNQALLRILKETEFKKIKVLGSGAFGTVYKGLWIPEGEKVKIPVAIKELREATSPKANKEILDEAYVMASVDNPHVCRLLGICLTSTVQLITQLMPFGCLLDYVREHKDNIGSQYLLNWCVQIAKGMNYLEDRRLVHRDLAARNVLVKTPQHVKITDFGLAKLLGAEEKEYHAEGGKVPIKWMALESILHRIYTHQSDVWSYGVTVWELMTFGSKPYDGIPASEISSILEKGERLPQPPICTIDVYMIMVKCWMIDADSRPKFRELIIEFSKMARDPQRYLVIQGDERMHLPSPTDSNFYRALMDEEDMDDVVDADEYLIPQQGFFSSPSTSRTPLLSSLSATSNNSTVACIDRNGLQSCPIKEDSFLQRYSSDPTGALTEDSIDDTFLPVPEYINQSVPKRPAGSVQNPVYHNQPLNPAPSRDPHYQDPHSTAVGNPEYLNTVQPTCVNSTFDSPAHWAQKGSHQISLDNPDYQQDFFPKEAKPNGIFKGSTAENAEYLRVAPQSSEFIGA
UniProt P00533, 25-1210 C797S/L858R limits assumed: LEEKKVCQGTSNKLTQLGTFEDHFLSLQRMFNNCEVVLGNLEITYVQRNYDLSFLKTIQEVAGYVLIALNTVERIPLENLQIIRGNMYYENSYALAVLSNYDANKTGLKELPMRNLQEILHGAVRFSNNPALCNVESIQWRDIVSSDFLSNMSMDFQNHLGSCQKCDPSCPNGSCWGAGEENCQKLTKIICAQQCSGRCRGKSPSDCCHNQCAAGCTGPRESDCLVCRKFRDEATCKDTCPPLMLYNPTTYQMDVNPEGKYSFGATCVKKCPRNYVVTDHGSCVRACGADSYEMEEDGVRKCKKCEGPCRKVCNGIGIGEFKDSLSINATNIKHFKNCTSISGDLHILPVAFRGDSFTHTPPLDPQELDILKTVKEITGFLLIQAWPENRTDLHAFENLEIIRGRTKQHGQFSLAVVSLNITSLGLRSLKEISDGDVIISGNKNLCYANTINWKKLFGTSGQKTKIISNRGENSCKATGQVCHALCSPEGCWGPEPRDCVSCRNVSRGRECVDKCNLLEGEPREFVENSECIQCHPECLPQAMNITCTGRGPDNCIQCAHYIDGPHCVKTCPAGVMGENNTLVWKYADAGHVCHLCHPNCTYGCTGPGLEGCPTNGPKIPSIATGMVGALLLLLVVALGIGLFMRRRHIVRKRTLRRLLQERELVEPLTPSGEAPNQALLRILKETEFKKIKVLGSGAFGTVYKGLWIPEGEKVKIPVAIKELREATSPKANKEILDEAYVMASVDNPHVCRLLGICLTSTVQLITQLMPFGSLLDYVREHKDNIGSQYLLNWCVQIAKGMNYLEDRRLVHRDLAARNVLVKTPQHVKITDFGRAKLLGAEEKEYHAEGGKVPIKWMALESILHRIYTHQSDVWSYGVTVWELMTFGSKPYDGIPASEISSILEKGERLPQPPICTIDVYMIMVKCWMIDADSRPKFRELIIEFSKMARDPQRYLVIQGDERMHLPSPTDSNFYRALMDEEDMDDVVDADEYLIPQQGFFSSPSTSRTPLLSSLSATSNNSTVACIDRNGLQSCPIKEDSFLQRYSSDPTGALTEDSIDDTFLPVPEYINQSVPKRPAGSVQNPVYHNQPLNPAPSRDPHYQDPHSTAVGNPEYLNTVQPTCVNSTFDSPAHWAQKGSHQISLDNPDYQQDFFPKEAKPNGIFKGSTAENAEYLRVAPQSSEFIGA
UniProt P00533, 25-1210 T790M/C797S/L858R limits assumed: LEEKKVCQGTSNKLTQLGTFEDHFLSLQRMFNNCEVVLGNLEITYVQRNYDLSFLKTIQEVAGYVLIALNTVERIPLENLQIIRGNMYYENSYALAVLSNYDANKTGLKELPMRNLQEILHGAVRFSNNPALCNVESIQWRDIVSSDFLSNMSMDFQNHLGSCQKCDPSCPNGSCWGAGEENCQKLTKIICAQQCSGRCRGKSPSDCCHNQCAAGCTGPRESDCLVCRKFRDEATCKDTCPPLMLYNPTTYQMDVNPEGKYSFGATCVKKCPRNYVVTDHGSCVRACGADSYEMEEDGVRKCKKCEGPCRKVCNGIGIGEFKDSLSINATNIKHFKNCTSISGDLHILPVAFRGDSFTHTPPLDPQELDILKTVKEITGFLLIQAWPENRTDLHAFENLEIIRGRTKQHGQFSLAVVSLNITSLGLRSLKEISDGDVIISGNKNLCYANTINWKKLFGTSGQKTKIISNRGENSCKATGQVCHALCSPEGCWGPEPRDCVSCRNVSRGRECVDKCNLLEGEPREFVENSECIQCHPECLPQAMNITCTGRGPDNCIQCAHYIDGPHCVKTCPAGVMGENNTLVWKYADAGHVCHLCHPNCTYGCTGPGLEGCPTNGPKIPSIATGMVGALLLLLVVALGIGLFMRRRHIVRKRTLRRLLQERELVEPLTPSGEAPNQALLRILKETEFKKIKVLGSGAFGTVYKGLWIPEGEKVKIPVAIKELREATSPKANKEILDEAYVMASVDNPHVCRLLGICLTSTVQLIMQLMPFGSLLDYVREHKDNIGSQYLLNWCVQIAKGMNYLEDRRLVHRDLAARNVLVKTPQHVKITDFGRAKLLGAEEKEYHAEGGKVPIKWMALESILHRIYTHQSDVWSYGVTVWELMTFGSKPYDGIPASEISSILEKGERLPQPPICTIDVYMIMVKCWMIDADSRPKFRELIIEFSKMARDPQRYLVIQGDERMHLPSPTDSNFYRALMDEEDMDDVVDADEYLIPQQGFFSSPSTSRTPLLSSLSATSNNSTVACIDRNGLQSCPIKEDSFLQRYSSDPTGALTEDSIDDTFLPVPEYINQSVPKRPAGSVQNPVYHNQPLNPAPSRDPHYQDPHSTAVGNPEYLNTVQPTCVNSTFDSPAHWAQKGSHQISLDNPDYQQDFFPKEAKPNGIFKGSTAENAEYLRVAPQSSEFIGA
UniProt P00533, with tags, fused parts or gaps DEL746-750/C797S limits assumed: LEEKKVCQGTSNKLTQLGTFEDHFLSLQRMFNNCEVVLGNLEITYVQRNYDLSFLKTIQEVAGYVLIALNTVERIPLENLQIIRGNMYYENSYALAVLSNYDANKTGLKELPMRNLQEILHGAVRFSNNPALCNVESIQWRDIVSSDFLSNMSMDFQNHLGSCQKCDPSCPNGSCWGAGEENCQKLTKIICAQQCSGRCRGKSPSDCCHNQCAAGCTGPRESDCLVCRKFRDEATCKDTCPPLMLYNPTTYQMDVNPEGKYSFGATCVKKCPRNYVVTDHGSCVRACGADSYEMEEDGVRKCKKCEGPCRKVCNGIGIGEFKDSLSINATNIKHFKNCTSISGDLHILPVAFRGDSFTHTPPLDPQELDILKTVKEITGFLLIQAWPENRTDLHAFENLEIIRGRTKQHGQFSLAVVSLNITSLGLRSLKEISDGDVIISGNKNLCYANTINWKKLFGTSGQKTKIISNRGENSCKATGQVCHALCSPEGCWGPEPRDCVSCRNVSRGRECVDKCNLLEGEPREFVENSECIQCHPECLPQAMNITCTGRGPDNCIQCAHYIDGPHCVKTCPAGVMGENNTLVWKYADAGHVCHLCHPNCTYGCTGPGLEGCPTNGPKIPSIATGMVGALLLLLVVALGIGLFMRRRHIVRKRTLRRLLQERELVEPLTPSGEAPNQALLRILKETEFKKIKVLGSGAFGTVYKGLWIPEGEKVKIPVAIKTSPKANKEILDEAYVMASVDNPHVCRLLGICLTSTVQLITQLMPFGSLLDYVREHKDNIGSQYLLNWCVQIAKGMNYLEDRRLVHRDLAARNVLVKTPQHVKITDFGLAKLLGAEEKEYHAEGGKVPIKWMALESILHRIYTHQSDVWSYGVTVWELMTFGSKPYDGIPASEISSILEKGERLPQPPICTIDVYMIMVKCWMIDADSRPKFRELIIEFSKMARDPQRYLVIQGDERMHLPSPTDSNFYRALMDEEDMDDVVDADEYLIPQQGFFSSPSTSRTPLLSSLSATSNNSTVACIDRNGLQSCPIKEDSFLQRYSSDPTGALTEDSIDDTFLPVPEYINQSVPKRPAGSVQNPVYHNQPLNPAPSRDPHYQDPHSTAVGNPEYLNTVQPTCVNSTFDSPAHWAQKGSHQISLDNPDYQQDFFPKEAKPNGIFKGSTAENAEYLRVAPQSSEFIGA
UniProt P00533, with tags, fused parts or gaps DEL746-750/T790M/C797S limits assumed: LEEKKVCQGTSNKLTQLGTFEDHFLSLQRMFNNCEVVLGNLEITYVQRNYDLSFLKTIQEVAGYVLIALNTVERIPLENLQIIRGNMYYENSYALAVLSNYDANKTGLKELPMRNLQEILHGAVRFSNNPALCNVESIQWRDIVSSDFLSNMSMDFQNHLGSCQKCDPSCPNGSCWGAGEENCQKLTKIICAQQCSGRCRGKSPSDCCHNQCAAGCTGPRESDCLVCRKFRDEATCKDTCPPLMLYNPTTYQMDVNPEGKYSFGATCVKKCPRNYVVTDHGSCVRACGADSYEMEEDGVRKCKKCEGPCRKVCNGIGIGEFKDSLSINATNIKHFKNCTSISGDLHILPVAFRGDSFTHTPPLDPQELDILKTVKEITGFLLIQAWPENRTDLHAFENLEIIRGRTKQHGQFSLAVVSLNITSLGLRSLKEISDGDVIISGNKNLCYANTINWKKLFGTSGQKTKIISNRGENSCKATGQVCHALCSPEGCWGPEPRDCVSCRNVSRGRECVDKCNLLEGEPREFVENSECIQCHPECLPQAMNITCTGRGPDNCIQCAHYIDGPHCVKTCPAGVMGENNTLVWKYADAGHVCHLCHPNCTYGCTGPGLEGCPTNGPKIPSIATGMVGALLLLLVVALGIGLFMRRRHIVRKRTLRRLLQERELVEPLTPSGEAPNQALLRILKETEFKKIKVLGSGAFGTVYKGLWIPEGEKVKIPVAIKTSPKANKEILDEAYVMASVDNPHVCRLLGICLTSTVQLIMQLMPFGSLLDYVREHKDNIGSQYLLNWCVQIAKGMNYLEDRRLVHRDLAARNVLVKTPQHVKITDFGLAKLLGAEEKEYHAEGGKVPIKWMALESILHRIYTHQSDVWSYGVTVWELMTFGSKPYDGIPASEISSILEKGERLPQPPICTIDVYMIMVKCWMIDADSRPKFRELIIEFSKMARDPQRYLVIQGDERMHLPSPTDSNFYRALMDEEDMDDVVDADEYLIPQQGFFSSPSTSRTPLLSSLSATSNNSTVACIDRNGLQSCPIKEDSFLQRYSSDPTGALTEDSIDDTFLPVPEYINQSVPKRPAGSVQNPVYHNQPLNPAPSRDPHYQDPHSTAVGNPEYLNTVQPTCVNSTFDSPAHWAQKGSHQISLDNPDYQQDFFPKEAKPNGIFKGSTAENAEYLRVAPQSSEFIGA

Legend:
[1] = target: EGFR LRTMCS (L858R/T790M/C797S) (Homo sapiens, UniProt P00533, C797S/L858R/T790M); experiment: Biochemical EGFR kinase assay (Lance Ultra TR-FRET), triple mutant L858R/T790M/C797S
[2] = target: EGFR LRCS (L858R/C797S) (Homo sapiens, UniProt P00533, C797S/L858R); experiment: Biochemical EGFR kinase assay (Lance Ultra TR-FRET), double mutant L858R/C797S
[3] = target: EGFR D19TMCS (del19/T790M/C797S) (Homo sapiens, UniProt P00533, C797S/DEL746-750/T790M); experiment: Biochemical EGFR kinase assay (Lance Ultra TR-FRET), triple mutant del19/T790M/C797S
[4] = target: EGFR WT (Homo sapiens, UniProt P00533); experiment: Biochemical EGFR kinase assay (Lance Ultra TR-FRET), wildtype
[5] = target: EGFR D19CS (del19/C797S) (Homo sapiens, UniProt P00533, C797S/DEL746-750); experiment: Biochemical EGFR kinase assay (Lance Ultra TR-FRET), double mutant del19/C797S
[6] = read-out: IC50, EGFR LRTMCS, 1 mM, ATP 1 mM, EGFR L858R/T790M/C797S
[7] = read-out: IC50, EGFR LRTMCS, Km, ATP at Km, EGFR L858R/T790M/C797S
[8] = read-out: IC50, EGFR-LRCS, 1 mM, ATP 1 mM, EGFR L858R/C797S
[9] = read-out: IC50, EGFR-LRCS, Km, ATP at Km, EGFR L858R/C797S
[10] = read-out: IC50, EGFR D19TMCS, Km, ATP at Km, EGFR del19/T790M/C797S
[11] = read-out: IC50, EGFR WT, 1 mM, ATP 1 mM, EGFR wildtype
[12] = read-out: IC50, EGFR WT, Km, ATP at Km, EGFR wildtype
[13] = read-out: IC50, EGFR-D19CS, 1 mM, ATP 1 mM, EGFR del19/C797S
[14] = read-out: IC50, EGFR-D19CS, Km, ATP at Km, EGFR del19/C797S
[15] = read-out: EGFR LRTMCS IC50, ATP 1 mM
[16] = read-out: EGFR LRTMCS IC50, ATP Km
[17] = read-out: EGFR LRCS IC50, ATP 1 mM
[18] = read-out: EGFR LRCS IC50, ATP Km
[19] = read-out: EGFR D19TMCS IC50, ATP 1 mM
[20] = read-out: EGFR D19TMCS IC50, ATP Km
[21] = read-out: EGFR WT IC50, ATP 1 mM
[22] = read-out: EGFR D19CS IC50, ATP 1 mM
[23] = read-out: EGFR D19CS IC50, ATP Km

Compound | IC50 [1, 6] | IC50 [1, 7] | IC50 [2, 8] | IC50 [2, 9] | IC50 [3, 10] | IC50 [4, 11] | IC50 [4, 12] | IC50 [5, 13] | IC50 [5, 14] | IC50 [1, 15] | IC50 [1, 16] | IC50 [2, 17] | IC50 [2, 18] | IC50 [3, 19] | IC50 [3, 20] | IC50 [4, 21] | IC50 ([4]; read-out: EGFR WT IC50, ATP Km) | IC50 [5, 22] | IC50 [5, 23]
Cc1nn(C)c2c1-c1nccc(n1)Nc1cc(c(-c3cnc(C(C)(C)O)cn3)cn1)NCC[C@H](C)O2 | < 10 nM | < 10 nM | 10 to 100 nM | < 10 nM | < 10 nM | > 1000 nM | < 10 nM | 10 to 100 nM | < 10 nM |  |  |  |  |  |  |  |  |  | 
Cc1nn(C)c2c1-c1nccc(n1)Nc1cc(c(-c3ccc(OC4CCN(C)CC4)cn3)cn1)NCC[C@@H](C)O2 |  |  |  |  |  |  |  |  |  | < 10 nM | < 10 nM | < 10 nM | < 10 nM | < 10 nM | < 10 nM | 10 to 100 nM | < 10 nM | < 10 nM | < 10 nM
Cc1nn(C)c2c1-c1nccc(n1)Nc1cc(c(-c3cccc(C(C)(C)O)n3)cn1)NCC[C@H](C)O2 | < 10 nM | < 10 nM | 10 to 100 nM | < 10 nM | < 10 nM | > 1000 nM | 10 to 100 nM | 10 to 100 nM | < 10 nM |  |  |  |  |  |  |  |  |  | 
C[C@H]1CCNc2cc(ncc2-c2ccn(CC(F)(F)F)n2)Nc2ccnc(n2)-c2cnn(C)c2O1 |  |  |  |  |  |  |  |  |  | < 10 nM | < 10 nM | 10 to 100 nM | < 10 nM | < 10 nM | < 10 nM | > 1000 nM | < 10 nM | < 10 nM | < 10 nM
CC1CCCOc2c(cnn2C)-c2nccc(n2)Nc2cc(c(-c3ccn(C(F)F)n3)cn2)N1 (stereo not shown) |  |  |  |  |  |  |  |  |  | < 10 nM | < 10 nM | 100 to 1000 nM | 10 to 100 nM | < 10 nM | < 10 nM | > 1000 nM | 10 to 100 nM | 10 to 100 nM | < 10 nM
C[C@H]1CCOc2c(cnn2C)-c2nccc(n2)Nc2cc(c(-c3csc(C(F)(F)F)n3)cn2)N1 |  |  |  |  |  |  |  |  |  | 10 to 100 nM | < 10 nM | > 1000 nM | 10 to 100 nM | < 10 nM | < 10 nM | > 1000 nM | > 1000 nM | > 1000 nM | 100 to 1000 nM
C[C@H]1CCOc2c(cnn2C)-c2nccc(n2)Nc2cc(c(-c3cnc(OC4CCOC4)cn3)cn2)N1 (stereo partly shown) |  |  |  |  |  |  |  |  |  | < 10 nM | < 10 nM | 100 to 1000 nM | < 10 nM | < 10 nM | < 10 nM | > 1000 nM | 10 to 100 nM | 10 to 100 nM | < 10 nM
Cc1nn(C)c2c1-c1nccc(n1)Nc1cc(c(-c3cnc(CN4CC5(COC5)C4)cn3)cn1)NCC[C@H](C)O2 | < 10 nM | < 10 nM | < 10 nM | < 10 nM | < 10 nM | > 1000 nM | < 10 nM | < 10 nM | < 10 nM |  |  |  |  |  |  |  |  |  | 
Cc1nn(C)c2c1-c1nccc(n1)Nc1cc(c(-c3ccc(C(C)(C)O)cn3)cn1)NCC[C@H](C)O2 | < 10 nM | < 10 nM | 10 to 100 nM | < 10 nM | < 10 nM | > 1000 nM | 10 to 100 nM | 10 to 100 nM | < 10 nM |  |  |  |  |  |  |  |  |  | 
Cc1nn(C)c2c1-c1nccc(n1)Nc1cc(c(-c3ncc(S(C)(=O)=O)cn3)cn1)NCC[C@H](C)O2 | < 10 nM | < 10 nM | 10 to 100 nM | < 10 nM | < 10 nM | > 1000 nM | < 10 nM | < 10 nM | < 10 nM |  |  |  |  |  |  |  |  |  | 
Cc1nn(C)c2c1-c1nccc(n1)Nc1cc(c(-c3ncc(C(C)(C)O)cc3F)cn1)NCC[C@H](C)O2 |  |  |  |  |  |  |  |  |  | < 10 nM | < 10 nM | 10 to 100 nM | < 10 nM | < 10 nM | < 10 nM | > 1000 nM | 10 to 100 nM | 10 to 100 nM | < 10 nM
Cc1nn(C)c2c1-c1nccc(n1)Nc1cc(c(-c3ccc(OC4CCN(C)CC4)cn3)cn1)NCC[C@H](C)O2 |  |  |  |  |  |  |  |  |  | < 10 nM | < 10 nM | < 10 nM | < 10 nM | < 10 nM | < 10 nM | 100 to 1000 nM | < 10 nM | < 10 nM | < 10 nM
